# US20240084003A1 (SIMCERE ZAIMING PHARMACEUTICAL, published 2024)
# T1: human CD22-ECD-His protein (human, UniProt P20273 20-687)
# T1 construct: Recombinant, from HEK293E cells; also called hCD22-ECD-His; human CD22-His protein; not shown: His tag
# T1 sequence: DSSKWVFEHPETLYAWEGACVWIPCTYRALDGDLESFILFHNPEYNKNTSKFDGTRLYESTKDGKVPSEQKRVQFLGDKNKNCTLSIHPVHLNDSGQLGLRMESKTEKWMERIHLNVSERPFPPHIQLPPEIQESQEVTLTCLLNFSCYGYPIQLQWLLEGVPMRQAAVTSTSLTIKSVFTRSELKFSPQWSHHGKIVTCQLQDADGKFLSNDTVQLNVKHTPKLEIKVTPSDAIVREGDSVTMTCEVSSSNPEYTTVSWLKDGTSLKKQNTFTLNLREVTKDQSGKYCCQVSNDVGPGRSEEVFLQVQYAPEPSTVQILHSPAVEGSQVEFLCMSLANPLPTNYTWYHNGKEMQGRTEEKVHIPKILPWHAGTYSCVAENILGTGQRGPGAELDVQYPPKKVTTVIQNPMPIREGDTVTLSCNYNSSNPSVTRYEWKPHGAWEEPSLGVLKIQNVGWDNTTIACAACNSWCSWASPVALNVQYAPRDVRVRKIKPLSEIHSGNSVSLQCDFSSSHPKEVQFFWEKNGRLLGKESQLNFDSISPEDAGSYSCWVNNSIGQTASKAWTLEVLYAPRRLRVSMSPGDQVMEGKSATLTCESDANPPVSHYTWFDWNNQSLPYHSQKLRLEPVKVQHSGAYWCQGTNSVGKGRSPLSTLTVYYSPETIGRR
# B1: F1.231.15 (antibody, IgG1, V domains shown)
# VH: QVQLQQPGAELVKPGASVKLSCKTSGYTFTIYWMQWVKQRPGRGLEWIGRIDPHSGDTHYNENFTTKVTLTVDETSNTAYMHLSGLTSEDSAVYYCARRDYSYYVLDYWGQGTSVTVSS
# VL: DVVLTQTPLSLPVSLGDQASISCRSSQSLVHINGDTYLHWYLQKPGQSPKLLIYTVFNRFSGVPDRFSGSGSGTDFTLKISRVEAEDLGAYFCSQSTHVPYTFGGGTKLEIKR
# notes: Chimeric IgG1 kappa
# Target: T1, human CD22-ECD-His protein
# Assay: SPR (Biacore), antibody captured on Protein A chip, CD22-ECD-His in solution
# Protocol: Sample buffer and running buffer were HBS-EP+(10 mM HEPES, 150 mM NaCl, 3 mM EDTA, 0.05% surfactant P20) (GE Healthcare; BR-1006-69). The flow-through cell was set to 25° C. The sample block was set to 16° C. Both were pretreated with the running buffer. In each cycle, the antibody to be tested was first captured with a Protein A chip, then a single concentration of CD22 antigen protein was injected. The binding and dissociation process of the antibody and the antigen protein was recorded, and finally Glycine pH 1.5 (GE Healthcare; BR-1003-54) was used to complete chip regeneration. Binding was measured by injecting different concentrations of recombinant human CD22-ECD His protein in solution for 240 s with a flow rate of 30 μL/min. The concentration started from 200 nM (see the detailed results for the actual concentration in the test) and was diluted at 1:1, making a total of 5 concentrations. The dissociation phase was monitored for up to 600 s and was triggered by switching from sample solution to running buffer. The surface was regenerated by washing with a 10 mM of glycine solution (pH 1.5) for 30 s at a flow rate of 30 μL/min. Bulk refractive index difference was corrected by subtracting the response obtained from the goat anti-human Fc surface. Blank injection was also subtracted (=double reference). […]
binder,measurement,value
B1,koff,0.00244 s⁻¹
